This test deals with human PDE6D (Homo sapiens, UniProt O43924).
Broadly, the Kd is the constant that tells how readily two partners part at equilibrium. As to `Cc1ccc(CSc2nc(-c3ccccc3)c(-c3ccccc3)[nH]2)cc1`, the Kd came out at 3050 nM.
To `CNc1nccc(-c2c(-c3ccc(F)cc3)ncn2C2CCN(Cc3ccccc3)CC2)n1` belongs 495 nM.
For the compound `Clc1cccc(Cl)c1CSc1nc(-c2ccccc2)c(-c2ccccc2)[nH]1`, the Kd was 568 nM.
In the case of `Cc1sc(-c2ccsc2)nc1-c1ccc(-c2ccccc2F)cc1`, the Kd came out at 779 nM.
For `C=CCSc1nc(-c2ccccc2)c(-c2ccccc2)[nH]1`, the Kd worked out at 420 nM.
